Assay results: patent US8324380B2, “Amino-heteroaryl-containing prokineticin 1 receptor antagonists” (Janssen Pharmaceutica NV, priority 2007, dated 2012)

Amino acid sequences for entries named in this document (tags omitted).
UniProt Q8TCW9, whole entry: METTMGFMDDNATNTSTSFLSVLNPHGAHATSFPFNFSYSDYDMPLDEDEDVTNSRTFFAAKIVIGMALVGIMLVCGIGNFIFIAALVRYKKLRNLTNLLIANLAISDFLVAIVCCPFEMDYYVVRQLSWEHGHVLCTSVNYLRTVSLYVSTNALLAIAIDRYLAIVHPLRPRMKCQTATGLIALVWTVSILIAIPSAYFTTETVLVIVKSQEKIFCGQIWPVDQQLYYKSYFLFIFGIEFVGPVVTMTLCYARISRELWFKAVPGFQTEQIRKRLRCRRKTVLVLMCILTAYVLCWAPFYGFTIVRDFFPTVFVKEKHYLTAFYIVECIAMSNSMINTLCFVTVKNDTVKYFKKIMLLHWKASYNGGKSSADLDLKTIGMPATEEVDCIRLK

Molecular target: GPR73 (prokineticin 1 receptor) (Homo sapiens, UniProt Q8TCW9)
Assay: PK1 functional assay: Ca2+ mobilization on the FLIPR
Details: for Ca^2+ Mobilization % Inh @10 µM: 10 µM; for IC50: read-out: Ca^2+ Mobilization IC50, HEK 293 GPR73 cells
Procedure: At a time of 24 h prior to running the assay, in cell culture media (DMEM containing high Glucose and L-glutamine, 10% FBS, 1% Pen/Streptomycin, 1% Sodium Pyruvate, 20 mM HEPES, Zeocin 200 mg/L), 100 µL of 1.3*10^6/ml HEK 293 GPR73 (prokineticin 1 receptor) expressing cells were plated in a 96 well poly-d-lysine coated plate (Costar), and incubated at 37° C. and 5% CO2. On the day in which the assay was run, the media was removed and 200 µL of 5× Calcium Plus Dye (Molecular Devices) which was previously resuspended with 200 mL of assay buffer [HBSS w/Ca^2+ and Mg^2+ w/o phenol red, 20 mM HEPES, 0.1% BSA, 10 mL probenecid (710 mg probenecid in 5 mL of 1N NaOH, to which was then added 5 mL HBSS containing 20 mM HEPES)] was added to each well of the 96-well plate. The plate was incubated at 37° C. and 5% CO2 for 30 min in dark. The plate was removed and allowed to reach RT for 15 min in the dark. The assay was then run on the FLIPR. In Brief: base line read for 1 min, compound added (25 μL) and incubated for 4 min, 15 seconds, PK1 ligand preparation added (25 μL) for a final concentration of a previously determined EC50 and fluorescence was counted for 1 min, 45 seconds. Baseline is described as the amount of relative fluorescence read when buffer alone is added to cells. Baseline was subtracted from all wells. Percent of control was calculated as follows: (Baseline subtracted well value is divided by baseline subtracted max value)*100. Percent inhibition is 100 minus the percent of control value.
The IC50 is defined as the amount of a given compound required to inhibit 50% of the maximum signal that is generated by the concentration of PK1 preparation used in our assay. IC50 values were calculated using GraphPad Prism.

NC1=NCc2ccccc2N1CCNc1nc(=O)n(Cc2ccc(F)cc2)c(=O)n1Cc1ccc(OC(F)F)cc1
Ca^2+ Mobilization % Inh @10 µM: 96% | IC50: 171 nM

COc1ccc(Cn2c(NCCn3ccnc3NC(=O)C(C)(C)C)nc(=O)n(Cc3ccc(F)cc3)c2=O)cc1
Ca^2+ Mobilization % Inh @10 µM: 99% | IC50: 106 nM

COc1ccc(Cn2c(NCCn3c(N)nc4ccc(C)cc43)nc(=O)n(Cc3ccc(F)cc3)c2=O)cc1 [Cpd 3, 6-[2-(2-Amino-6-methyl-benzoimidazol-1-yl)-ethylamino]-3-(4-fluoro-benzyl)-1-(4-methoxy-benzyl)-1H-[1,3,5]triazine-2,4-dione]
Ca^2+ Mobilization % Inh @10 µM: 93% | IC50: 123 nM

COc1ccc(Cn2c(NCCn3c(NC(=O)C(C)(C)C)nc4ccccc43)nc(=O)n(Cc3ccc(F)cc3)c2=O)cc1
Ca^2+ Mobilization % Inh @10 µM: 93% | IC50: 797 nM

COc1ccc(Cn2c(NCCn3c(NC(=O)C(F)(F)F)nc4ccccc43)nc(=O)n(Cc3ccc(F)cc3)c2=O)cc1
Ca^2+ Mobilization % Inh @10 µM: 96% | IC50: 419 nM

CC(=O)Nc1nc2ccccc2n1CCNc1nc(=O)n(Cc2ccc(F)cc2)c(=O)n1Cc1ccc(OC(F)F)cc1
Ca^2+ Mobilization % Inh @10 µM: 47% | IC50: 7910 nM
